Results from US20250282874A1 (SUZHOU TRANSCENTA THERAPEUTICS, published 2025).

Assays:
[1] = target: human IL-1R on HEK293-CD40L reporter cells (human); test: cell-based or functional assay
[2] = target: T1, Human IL-1RI-his (Sino Biological, Cat #10126-H08H) (human, UniProt P14778 18-332); test: competition ELISA, human IL-1β coated, Human IL-1RI-his added with the titrated sample, anti-His-HRP, OD450
T1 construct: not shown: His tag
T1 sequence (looked up): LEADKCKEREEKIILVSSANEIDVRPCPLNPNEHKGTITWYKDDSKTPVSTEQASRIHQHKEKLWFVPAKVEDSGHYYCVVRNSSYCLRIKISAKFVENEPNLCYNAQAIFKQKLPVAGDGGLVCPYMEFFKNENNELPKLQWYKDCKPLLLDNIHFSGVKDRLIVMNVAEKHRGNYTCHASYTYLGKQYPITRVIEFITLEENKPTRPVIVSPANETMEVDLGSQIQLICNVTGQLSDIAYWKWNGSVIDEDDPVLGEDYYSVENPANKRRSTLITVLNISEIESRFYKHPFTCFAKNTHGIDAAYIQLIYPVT

B1: IL-1RA protein (Sino Biological, Cat #10123-HNAE) (ligand, UniProt P18510 26-177, looked up)
chain: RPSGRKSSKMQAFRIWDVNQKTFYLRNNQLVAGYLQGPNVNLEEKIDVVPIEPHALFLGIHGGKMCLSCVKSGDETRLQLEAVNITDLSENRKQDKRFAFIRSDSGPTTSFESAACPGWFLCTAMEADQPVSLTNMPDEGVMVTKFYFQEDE
notes: also called IL-IRA protein
IC50, SEAP at OD 620 nm, HEK-Blue CD40L reporter cells stimulated with human IL-1β [1]: 0.524 nM
IC50 [2]: 8.68 nM
